Results published in US20260108546A1 (ELI LILLY AND COMPANY, priority 2024, published 2026).

Sequences of proteins named here, by UniProt entry; tags and fusion partners are left off. Residues count along the entry.
UniProt P48546, 22-466 limits assumed: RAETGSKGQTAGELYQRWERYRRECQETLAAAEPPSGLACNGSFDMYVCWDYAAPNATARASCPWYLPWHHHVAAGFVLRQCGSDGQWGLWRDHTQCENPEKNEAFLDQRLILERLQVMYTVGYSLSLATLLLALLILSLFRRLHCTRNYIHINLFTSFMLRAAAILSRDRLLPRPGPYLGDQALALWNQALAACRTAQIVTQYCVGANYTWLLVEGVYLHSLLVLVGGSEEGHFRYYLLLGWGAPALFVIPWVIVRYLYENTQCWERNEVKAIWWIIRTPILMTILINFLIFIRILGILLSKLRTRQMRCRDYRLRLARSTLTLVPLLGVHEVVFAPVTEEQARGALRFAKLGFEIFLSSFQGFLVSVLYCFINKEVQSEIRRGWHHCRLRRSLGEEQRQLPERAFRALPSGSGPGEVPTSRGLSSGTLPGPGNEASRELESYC

Molecular target: hGIP-R (Homo sapiens, UniProt P48546)
Assay: Functional hGIP-R Assay (cAMP formation, HTRF)
Details: cAMP efficacy; percent of maximal response to GIP(1-42)OH; 37° C., 0.1% bovine casein; arithmetic mean ± SEM
Procedure: Functional activity was determined using CAMP formation in HEK-293 clonal cell lines expressing hGIP-R. hGIP-R receptor expressing cells were treated with compound (20 point concentration-response curve in DMSO, 2-fold Labcyte Echo direct dilution, 384 well plate Corning Cat #3570) in DMEM (Gibco Cat #31053) supplemented with 1× GlutaMAX™ (Gibco Cat #35050), 0.1% bovine casein (Sigma C4765-10ML), 250 μM IBMX (3-Isobutyl-1-methylxanthine, Acros Cat #228420010) and 20 mM HEPES (Gibco Cat #15630) in a 20 μL assay volume (final DMSO concentration was 1%). After a 30 min incubation at 37° C., the resulting increase in intracellular cAMP was quantitatively determined using the Revvity CAMP Dynamic 2 HTRF Assay Kit (62AM4PEJ). Briefly, cAMP levels within the cell were detected by adding the cAMP-d2 conjugate in cell lysis buffer (10 μL) followed by the antibody anti-cAMP-Eu^3+-Cryptate, also in cell lysis buffer (10 μL). The resulting competitive assay was incubated for at least 60 min at RT, then detected using a BMG Labtech PHERAstar FSX instrument with excitation at 320 nm and emission at 665 nm and 620 nm. PHERAstar units (emission at 665 nm/620 nm*10,000) are inversely proportional to the amount of cAMP present and were converted to nM cAMP per well using a CAMP standard curve. […]

CC(C)(Cn1cc(C(F)(F)F)cn1)NC(=O)[C@@H](Cc1cnc2ncccn12)NC(=O)[C@H]1C[C@@H]1c1ccc(-c2cnc3nc(C(F)(F)F)cn3c2)cc1
Human GIP-R Emax, %: 91.6 ± 0.83%
